Inconclusive results are not listed.
System: U2OS PGC1a acetylation AlphaLISA, overnight
Test: activators raising PGC1a acetylation in cells, dose response, cell-based, cherry-picked samples, set 6 (AID 720513);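 also: cells made to overexpress flag tagged PGC1a plus GCN5 acetyltransferase by viral infection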

O=c1[nH]c2ccccc2n1C1CCN(C(c2ccccc2OC(F)(F)F)c2nnnn2C2CCCCC2)CC1 (stereo unspecified)
AC40: 11.4 µM
